# Binding of CDR-mutated scFvs to a peptide of the spike HR2 region

Target: peptide PDVDLGDISGINAS, taken from heptad repeat 2 (HR2) of SARS-CoV-2 spike.

Parent: Ab-91, a human scFv built as VL, three GGGGS repeats, VH. Only the CDRs of the heavy chain vary.
VL: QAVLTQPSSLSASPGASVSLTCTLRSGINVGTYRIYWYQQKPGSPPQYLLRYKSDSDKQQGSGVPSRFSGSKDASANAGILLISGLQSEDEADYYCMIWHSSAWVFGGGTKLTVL
VH: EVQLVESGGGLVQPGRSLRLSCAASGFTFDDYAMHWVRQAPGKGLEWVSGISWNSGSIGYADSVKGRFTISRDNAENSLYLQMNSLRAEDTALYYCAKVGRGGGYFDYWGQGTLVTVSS

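Phage display of a naive human antibody library on the peptide gave the parent. Variants in AAYL51 differ from the parent at up to three CDR positions; double and triple changes were sampled at random. Affinity was read by AlphaSeq, a pooled yeast mating assay with surface-displayed partners. After mating in shaken culture at 30 °C for 16 h, diploids were selected and their barcode pairs sequenced. The ratio of observed to expected reads was calibrated, replicate by replicate, on BCL2-family standards whose Kd was known from biolayer interferometry. Mating was done three times.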

Variants are written as CDR1, CDR2 and CDR3 of the heavy chain (limits as in the source). Parent: GFTFDDYAMH, GISWNSGSIGYADSVK, VGRGGGYFDY. Every variant below is changed at D107 of the VH (sequential numbering). Values are log10 of the apparent Kd in nM; lower means stronger binding. A mean of the replicates is given; it leaves out those without a signal. "nd" means that the variant was in the library but no mating with the target was seen in that replicate; the authors take this as a sign of poor binding, and no number exists. Three control strains display no target. For library AAYL51, 21% of the pairings with them gave a signal, with a median of 4.54 and one signal in twenty below 3.26, so weak values seen in few replicates may be background.

Variant GFLFDDWAMH / GISWNSGSIGYADSVK / VGRGGGYFFY showed 3.05, nd, nd. With GKTFDDNAMH / GISWNSGSIGYADSVK / VGRGGGYFGY the result was nd, nd, nd. Variant EFTFDDDAMH / GISWNSGSIGYADSVK / VGRGGGYFAY gave nd, 4.42, nd. Variant GFTFDGYAMH / GISWNAGSIGYADSVK / VGRGGGYFTY gave 4.98, nd, nd. Variant GFTFDDYHMH / GISWNSGSIGYADSVK / VGRGPGYFEY showed 5.37, nd, 4.17 (mean 4.77). Variant GFTFDDYAMH / GISWNSGSIGYADYVK / VGRGGGYFRY gave 1.15, 0.96, 0.69 (mean 0.93). For GFTKDDYAMH / GISWNSGSIGYADSVK / VGRGGGYFAY, the assay gave nd, nd, nd.

Variant GFTFDDYAMH / GISWNSGSIGYADHVM / VGRGGGYFCY gave nd, nd, nd. Variant FWTFDDYAMH / GISWNSGSIGYADSVK / VGRGGGYFCY showed nd, 5.02, 4.61 (mean 4.82). For GFTFDDYAEL / GISWNSGSIGYADSVK / VGRGGGYFHY, the assay gave nd, 3.45, nd. Variant GFTFDDCAMH / GISWNSGSIGYADSVK / VGQGGGYFFY gave nd, nd, nd. Variant YFTFDDYAMH / GISWNSGSIGYADSVT / VGRGGGYFMY gave nd, nd, nd. For GFTFDDYAMH / GISWNSGSINYADSVK / VGRGGGYPYY, the assay gave nd, nd, nd. Variant GNTFDDYAMH / GISWNSGSIGYADSDK / VGRGGGYFAY gave nd, nd, nd.

Variant GFTFDDYRMH / GISWNSGSDGYADSVK / VGRGGGYFCY showed nd, nd, nd. For GWTFDDYAMD / GISWNSGSIGYADSVK / VGRGGGYFMY, the assay gave 4.54, nd, nd. With GFTFDDYAMH / GISWNHGSIGYADRVK / VGRGGGYFVY the result was nd, nd, nd. Variant GFTFDDYAMH / GISWNSGYIGYADSVK / VGRGGGKFKY showed nd, nd, nd. Variant GFTFDDYAMH / GISWNSGSIGYADSVK / VGRMGGYFVY gave nd, nd, nd. Variant GFTFDDYAMH / GISWNSGSIGYADSVK / VGRGGFYFVY gave 4.90, nd, nd. Variant GNTFDDYPMH / GISWNSGSIGYADSVK / VGRGGGYFSY gave nd, 3.68, nd.

Variant GFTFDDYAMH / GISWNSGSIGYADWVK / VGKGGGYFSY showed nd, 3.98, nd. Variant GMTFDDYAMH / GISWNSGSIGYAFSVK / VGRGGGYFFY gave nd, nd, nd. With GFTFDDYAMG / GIQWNSGSIGYADSVK / VGRGGGYFKY the result was nd, nd, nd. For GFTFDDYAMH / GISWNSGSIGYVDEVK / VGRGGGYFMY, the assay gave nd, nd, nd. For GFTFDSYAMH / GISWNSGSIGYADSVK / VHRGGGYFGY, the assay gave 2.78, 2.77, 2.71 (mean 2.75). With GFTFDDYAMH / GISWNSGSIGYADSVK / VGRGGGHFQI the result was 1.35, 1.20, 0.81 (mean 1.12). With FFTFDDLAMH / GISWNSGSIGYADSVK / VGRGGGYFWY the result was nd, nd, nd.

With GFTFDPYAMH / GISWNSGSIGYADGVK / VGRGGGYFHY the result was nd, 4.64, 4.78 (mean 4.71). For GFTFDDYAMH / GISWNSVSIGYAFSVK / VGRGGGYFKY, the assay gave nd, 3.65, nd. For GFTFDDYAMH / GISWNSGSIGYADSVK / RGRGGGYRFY, the assay gave nd, nd, nd. Variant GFTFDDYAMH / GISWNSGSIGYADSVK / YGRGGLYFYY showed 1.80, 1.66, 1.64 (mean 1.70). Variant GFTFDDYAMC / GISWNSGSIGQADSVK / VGRGGGYFWY showed nd, nd, nd. For GFTFDDYAMH / GISWNSGSIGYADSVK / VARGGGEFCY, the assay gave 1.22, 1.13, 0.72 (mean 1.02). With GFTFDDYAMH / GISWNMGSIGYADSVK / VGHGGGYFFY the result was nd, nd, nd.

For GFHFDDYAMH / GISWNSGHIGYADSVK / VGRGGGYFIY, the assay gave nd, nd, nd. Variant MFTFDDYAMH / GISWNSGSIGYADSVK / VGRGGGYDLY gave nd, nd, nd. Variant GFTFDDYAMY / GISWNSGSIGYADSKK / VGRGGGYFIY gave nd, 4.63, nd. With GFTFDDYAMH / GIEWNSGSIGYADSVN / VGRGGGYFFY the result was nd, nd, nd. Variant GFIFLDYAMH / GISWNSGSIGYADSVK / VGRGGGYFRY showed nd, nd, nd. With GFTFDDYAMH / GISWNSNSIGYADSVK / VGRMGGYFMY the result was 3.96, 3.95, nd (mean 3.95). With GFVFDDYAMH / GISWNSGSIGYADSVK / WGRGGGYFRY the result was nd, nd, nd.

Variant GFTFDYYAMH / GISWNSGSIGYADSVK / VGRGGGIFQY gave nd, nd, nd. Variant GFTFDDYAMH / GISWNSGSIGYADSYC / VGRGGGYFYY gave nd, nd, nd. Variant GFTFDPYAMH / GISWNSGSIGYADSFK / VGRGGGYFKY showed nd, 4.90, nd. With GFTFDDVAMH / GISWNDGSIGYADSVK / VGRGGGYFKY the result was 5.61, nd, 4.99 (mean 5.30). With GFTFDDGAMH / RISWNSGSIGYADSVK / VGRGGGYFQY the result was 3.74, nd, nd. Variant NFTFDDYAMH / GISWNSGSIGYADSVK / VGNGGGYFWY gave 4.56, 4.66, 4.64 (mean 4.62).

Excerpt, the first 5 entries:

Variant GFLFDDWAMH / GISWNSGSIGYADSVK / VGRGGGYFFY showed 3.05, nd, nd.
Variant GKTFDDNAMH / GISWNSGSIGYADSVK / VGRGGGYFGY showed nd, nd, nd.
Variant EFTFDDDAMH / GISWNSGSIGYADSVK / VGRGGGYFAY showed nd, 4.42, nd.
Variant GFTFDGYAMH / GISWNAGSIGYADSVK / VGRGGGYFTY showed 4.98, nd, nd.
Variant GFTFDDYHMH / GISWNSGSIGYADSVK / VGRGPGYFEY showed 5.37, nd, 4.17 (mean 4.77).

In this assay the parent's reference entry averaged 1.86; its copy inside this library read 0.88.

Reference: Engelhart et al. 2022, doi:10.1038/s41597-022-01779-4. File: FLAb, binding data.